# According to paper PMC12010006, “Subnanomolar MAS-related G protein-coupled receptor-X2/B2 antagonists with efficacy in human mast cells and disease models” (Signal Transduction and Targeted Therapy, 2025):
# Target: T1, MRGPRX2 (Homo sapiens, UniProt Q96LB1)
# T1 sequence (Q96LB1 1-330): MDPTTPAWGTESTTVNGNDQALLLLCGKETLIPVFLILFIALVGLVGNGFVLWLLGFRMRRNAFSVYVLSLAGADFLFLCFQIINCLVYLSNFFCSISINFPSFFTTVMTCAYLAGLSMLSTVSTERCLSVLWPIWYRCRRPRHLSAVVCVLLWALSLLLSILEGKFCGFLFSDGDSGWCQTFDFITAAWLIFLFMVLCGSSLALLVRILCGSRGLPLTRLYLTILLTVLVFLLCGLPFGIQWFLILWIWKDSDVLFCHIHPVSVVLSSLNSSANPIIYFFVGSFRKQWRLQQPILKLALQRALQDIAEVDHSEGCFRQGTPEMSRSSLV
# Assay: β-arrestin recruitment assay (antagonist mode), β-arrestin-CHO cells recombinantly expressing MRGPRX2
# Type: cell-based
# Set-up: expressed in transfected cells
substance,measurement,value
SP: peptide agonist substance P [reference compound],"EC80 of agonist, β-arrestin assay",3 µM
